From patent US10745393B2, “Small molecular probes, processes and use thereof” (JAWAHARLAL NEHRU CENTRE FOR ADVANCED SCIENTIFIC RESEARCH, priority 2014, dated 2020) come the findings set out here.

Sequences of proteins named here, by UniProt entry; tags and fusion partners are left off. Residues count along the entry.
UniProt P05067, 672-713 limits assumed: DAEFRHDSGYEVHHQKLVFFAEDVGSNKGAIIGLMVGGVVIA
UniProt P02769, 25-607: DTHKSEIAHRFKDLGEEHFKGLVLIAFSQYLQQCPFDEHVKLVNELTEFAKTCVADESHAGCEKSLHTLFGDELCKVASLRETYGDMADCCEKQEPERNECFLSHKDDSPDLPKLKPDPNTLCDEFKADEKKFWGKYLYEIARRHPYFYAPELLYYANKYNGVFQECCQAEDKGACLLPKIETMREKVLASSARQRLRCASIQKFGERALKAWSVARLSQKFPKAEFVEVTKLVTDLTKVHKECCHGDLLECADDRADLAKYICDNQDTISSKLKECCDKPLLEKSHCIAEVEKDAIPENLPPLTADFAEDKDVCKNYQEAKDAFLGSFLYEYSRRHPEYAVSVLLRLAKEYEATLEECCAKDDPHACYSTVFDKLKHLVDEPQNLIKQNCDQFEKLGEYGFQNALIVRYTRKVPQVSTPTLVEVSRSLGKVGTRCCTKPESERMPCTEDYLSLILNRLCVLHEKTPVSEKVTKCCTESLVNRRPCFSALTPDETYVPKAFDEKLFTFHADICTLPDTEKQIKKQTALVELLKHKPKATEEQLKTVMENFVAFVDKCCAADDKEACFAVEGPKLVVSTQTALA

In assay [1] the test system is (AT)10. As to the kind of experiment: Absorption / fluorescence response of probes with dsDNA (AT)10. In kind it is binding. The conditions noted are these: probe 10 μM.
Assay [2] concerns DNA. As to the kind of experiment: Comparison of DNA dyes: sequence selectivity and fluorescence of free/DNA bound dye. Conditions: Table 3, probe of the disclosure. In kind it is binding.
Assay [3] has as its target Aβ42 aggregates (Homo sapiens, UniProt P05067). As to the kind of experiment: Absorption / fluorescence response with Aβ42 fibrillar aggregates. In kind it is binding.
The target of assay [4] is bovine serum albumin (BSA) (Bos taurus, UniProt P02769). As to the kind of experiment: Selectivity: fluorescence with BSA. The conditions noted are these: BSA 20 μM. In kind it is binding.
The target in assay [5] is fetal bovine serum albumin (FBA) (Bos taurus, UniProt P02769). The conditions noted are these: TC 10 μM, Tris-HCl buffer, excitation 521 nm.

The structures appear in SMILES notation.

On to `CCN(CC)c1ccc2cc(/C=C/c3sc4ccccc4[n+]3C)c(=O)oc2c1` [TC, (E)-3-(2-(N-methyl-benzo[d]thiazol-2-yl)vinyl)-7-(diethylamino)-2H-chromen-2-one], for which, in assay [1], the “change in absorption maxima (bathochromic shift, Δλ) after addition of dsDNA (AT)10” value worked out at 14 nm and the “hypsochromic shift (Δλ) in the emission maxima with (AT)10” value turned out to be 26 nm. The Selectivity result in assay [2] is listed as “AT-rich”. For the same compound, the “Shift (red shift going into fibril-like environment)” value in assay [3] (Experiment, fibril vs water) stood at 58 nm. For the same compound, in assay [3] (TC 2 μM, Aβ42 aggregates 10 μM), the “bathochromic shift of absorption maxima (Δλmax) with Aβ42 aggregates” value is “≈ 59 nm”. For the same compound, the “fluorescence enhancement with BSA” value in assay [4] is reported as “does not lead to significant fluorescence enhancements”. Also, in assay [5], the “fluorescence in presence of FBA” value is “does not show any detectable basal fluorescence”.
